Test results published in patent US9266814B2, “Use of nitrooxy organic molecules in feed for reducing methane emission in ruminants, and/or to improve ruminant performance” (DSM IP ASSETS B.V., priority 2010, dated 2016).

Tested on: methane production of dairy cows
Experiment: In vivo effect in dairy cows (indirect calorimeters)
Parameters: species or system Holstein X Friesian dairy cows

Structure (SMILES): O=[N+]([O-])OCCCO [Compound 1, 3-Nitrooxypropanol]
- methane yield, % of control methane yield (high dose (2500 mg/d)): 93 % of control
- methane yield, % of control methane yield (low dose (500 mg/d)): 96 % of control
